The values that follow come from PubChem BioAssay AID1508623 (National Center for Advancing Translational Sciences (NCATS), 2021).

Structures are written as SMILES. This is a selection; strong and weak results do not stand in their true shares. Some tests of the compounds listed are not included; inactive here does not mean inactive elsewhere. Records with an inconclusive call do not appear. Activity calls are given as the source filed them. Calls come from the whole dose curve; as a rule, active = well fitted inhibition curve with a large enough effect; inconclusive = small, poorly fitted or top-dose-only effect; inactive = no such curve, though single readings can be large or run the other way.

The assay can be described thus: Primary qHTS for Identification of Small Molecule Inhibitors of Huntingtin Promoter Activity. Note: nearly all actives have a fitted effect of over 50% in size. Particulars: HEK293 HTT promoter firefly luciferase reporter (activity 0% = vehicle and -100% = no light), 24 h; at 57.5 µM (top of the series). The text has this: Assay Provider: Russell L. Margolis M.D.
Department Neurology, Johns Hopkins University School of Medicine, Baltimore, MD
Huntington's Disease (HD) is a neurodegenerative disorder caused by a CAG repeat expansion in exon 1 of huntingtin (HTT). While there are currently no disease-modifying treatments for HD, recent efforts have focused on development of nucleotide-based therapeutics to lower HTT expression. As an alternative to siRNA or oligonucleotide methods, we hypothesized that suppression of HTT expression might be accomplished by small molecules that either (1) directly decrease HTT expression by suppressing HTT promoter activity or (2) indirectly decrease HTT expression by increasing the promoter activity of HTT-AS, the gene antisense to HTT that appears to inhibit expression of HTT.
We developed and employed a high throughput screen for modifiers of HTT and HTT-AS promoter activity using luminescent reporter HEK293 cells; of the 52,041 compounds tested, we identified 898 replicable hits. We used a rigorous stepwise approach to assess compound toxicity and the capacity of the compounds to specifically lower huntingtin protein in 5 different cell lines, including HEK293 cells, HD lymphoblastoid cells, mouse primary neurons, HD iPSCs differentiated into cortical-like neurons, and HD hESCs. We found no compounds which were able to lower huntingtin without lowering cell viability in all assays, though the potential efficacy of a few compounds at non-toxic doses could not be excluded.
SEQUENCE No. (1, 2, 3, etc.); […] (e.g., Cells, Incubation, Reagent, etc.); VALUE and DESCRIPTION.
1; Reagent; 4 uL; 2,500 Hek293 luciferase reporter cells per wells
3; Compound; 23 nL; Control inhibitor / compound library
5; Reagent; 2.5 uL; Firefly Luc reagent; Dual-Glo Luciferase Reporter Assay System (Promega)
6; Time; 10 min; room temperature incubation
7; Detection; Luminescence; FLuc
NOTES (numbers refer to sequence above)
1; High-throughput screening, measuring luminescence from a Hek293 luciferase reporter, was performed in 1,536 well white-walled tissue-culture treated plates. 2,500 cells were plated in 4 µL of Opti-MEM per well using a Multidrop Combi Reagent Dispenser (ThermoFisher).
2; Assay plates were cultured for 24 hours.
3; Control inhibitor (PTC124; final concentration of 50 uM) and compound library (at final concentrations of 460 nM - 57.5 uM) were added to the assay plate using the Kalypsis Pintool Robotic System equipped with 1536 pinheads.
4; Cells were then incubated for 24 hours at 37 degrees C prior to luminescence measurements.
5; In all cases, luminescence was measured using the Dual-Glo Luciferase Reporter Assay System (Promega) following the manufacturer's instructions.
6; Room temperature incubation.
7; Luminescence signal was obtained using the PerkinElmer ViewLux plate reader. Results were normalized to vehicle control (0% activity) and zero RLU (-100% activity).
A general note: qHTS replaces the single test concentration by a dilution series.
For the molecule `CN(C)C1(CNC(=O)c2cccc(Cl)c2)CCCCC1`, the activity change, negative = inhibition was inactive: -12.5%.
As for `CN(C)C1(CNC(=O)c2ccccc2F)CCCCC1`, the activity change, negative = inhibition was inactive: -10.1%.
With `CN(C)C1(CNC(=O)c2ccccc2[N+](=O)[O-])CCCCC1`, the activity change, negative = inhibition was inactive: -8.48%.
As to `CCCCOc1ccccc1C(=O)NCC1(N(C)C)CCCCC1`, the activity change, negative = inhibition is inactive: -6.22%.
With `CCOc1cccc(C(=O)NCC2(N(C)C)CCCCC2)c1`, the activity change, negative = inhibition was inactive: -7.91%.
On to `COc1ccc(C(=O)NCC2(N(C)C)CCCCC2)cc1Cl`, for which the activity change, negative = inhibition was inactive: 6.54%.
Under `COc1cccc(C(=O)NCC2(N3CCOCC3)CCCCC2)c1` stands inactive: -5.58%.
Consider `CC(C)COc1ccc(C(=O)NCC2(N(C)C)CCCCC2)cc1`, for which the activity change, negative = inhibition is inactive: -13.4%.
`COc1cc(C(=O)NCC2(N(C)C)CCCCC2)cc(OC)c1OC`: the activity change, negative = inhibition is inactive: -2.08%.
With `Cc1cccc(C(=O)NCC2(N(C)C)CCCCC2)c1`, the activity change, negative = inhibition was inactive: -16.5%.
Take `CC(C)Oc1ccc(C(=O)NCC2(N(C)C)CCCCC2)cc1`: the activity change, negative = inhibition is inactive: -5%.
